From paper PMC4893804 (Journal of medicinal chemistry, 2015)

Amino acid sequences for entries named in this document (tags omitted). A change or cut given only in a name is not applied to a line headed by its entry.
UniProt P09252: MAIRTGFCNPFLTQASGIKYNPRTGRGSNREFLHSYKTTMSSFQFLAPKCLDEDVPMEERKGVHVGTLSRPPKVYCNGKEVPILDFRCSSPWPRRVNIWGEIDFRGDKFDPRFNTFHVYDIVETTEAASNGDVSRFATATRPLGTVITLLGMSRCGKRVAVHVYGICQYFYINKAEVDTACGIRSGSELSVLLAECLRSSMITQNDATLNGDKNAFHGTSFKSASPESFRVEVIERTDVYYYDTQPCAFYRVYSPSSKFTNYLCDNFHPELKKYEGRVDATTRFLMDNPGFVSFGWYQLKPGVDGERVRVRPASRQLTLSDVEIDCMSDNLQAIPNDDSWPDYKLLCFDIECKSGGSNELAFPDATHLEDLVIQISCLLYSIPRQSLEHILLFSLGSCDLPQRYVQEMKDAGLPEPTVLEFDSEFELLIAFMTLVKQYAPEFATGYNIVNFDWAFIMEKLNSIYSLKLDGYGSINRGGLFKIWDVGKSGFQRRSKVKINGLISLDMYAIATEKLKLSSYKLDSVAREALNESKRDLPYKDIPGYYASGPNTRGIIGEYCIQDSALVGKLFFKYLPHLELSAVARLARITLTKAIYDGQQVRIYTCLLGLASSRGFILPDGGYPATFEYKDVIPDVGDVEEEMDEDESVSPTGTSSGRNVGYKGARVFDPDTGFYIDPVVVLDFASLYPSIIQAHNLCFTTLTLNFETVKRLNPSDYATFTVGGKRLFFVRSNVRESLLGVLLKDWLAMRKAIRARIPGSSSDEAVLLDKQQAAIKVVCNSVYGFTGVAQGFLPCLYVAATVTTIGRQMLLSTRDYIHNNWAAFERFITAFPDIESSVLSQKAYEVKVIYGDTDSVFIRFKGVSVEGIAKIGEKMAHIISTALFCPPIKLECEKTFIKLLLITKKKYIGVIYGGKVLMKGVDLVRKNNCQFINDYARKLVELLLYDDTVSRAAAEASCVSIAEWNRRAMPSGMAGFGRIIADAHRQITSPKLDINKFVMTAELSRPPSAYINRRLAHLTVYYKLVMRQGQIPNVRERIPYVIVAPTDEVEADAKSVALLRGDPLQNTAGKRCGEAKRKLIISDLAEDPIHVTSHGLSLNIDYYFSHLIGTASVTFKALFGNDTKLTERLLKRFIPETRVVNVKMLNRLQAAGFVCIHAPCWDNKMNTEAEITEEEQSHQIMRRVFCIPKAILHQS

Target: VZV DNA polymerase (Varicella-zoster virus, UniProt P09252)
Test: Enzyme assay with VZV DNA polymerase
Format: biochemical

SMILES: O=C(O)P(=O)(O)O [PFA, phosphonoformic acid, reference compound]
- IC50: 180 ± 10 nM
